This is an account of results in article PMC6636858 (European journal of medicinal chemistry, 2019).

Sequences of proteins named here, by UniProt entry; tags and fusion partners are left off. Residues count along the entry.
UniProt P07711, 114-288 limits assumed: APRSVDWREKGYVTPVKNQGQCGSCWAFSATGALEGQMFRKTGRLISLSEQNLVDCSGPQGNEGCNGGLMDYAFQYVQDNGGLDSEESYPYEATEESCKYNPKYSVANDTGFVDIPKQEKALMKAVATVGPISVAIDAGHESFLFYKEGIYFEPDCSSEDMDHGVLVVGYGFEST
UniProt P07711, 292-333 limits assumed: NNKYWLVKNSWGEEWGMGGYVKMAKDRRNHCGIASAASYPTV

Test [1] has as its target Cathepsin B (CatB, human liver) (Homo sapiens, UniProt P07858). The test can be described thus: CatB inhibition constants / Km, fluorogenic substrate Z-Arg-Arg-AMC. It counts as biochemical. The conditions noted are these: 37 °C.
In test [2] the target is Cathepsin L (Cat L, human liver) (Homo sapiens, UniProt P07711). The test can be described thus: CatL inhibition constants / Km, fluorogenic substrate Z-Phe-Arg-AMC. The conditions noted are these: 37 °C. It counts as biochemical.

On to “3-(((S)-1-(((S)-1-((2-azidoethyl)amino)-5-guanidino-1-oxopentan-2-yl)amino)-4-methyl-1-oxopentan-2-yl)carbamoyl)oxirane-2-carboxylic acid [1a]”, for which the figures for the Ki in test [1] and in test [2] were 64 ± 4 nM and 47 ± 6 nM, respectively.

A word on the Ki: it is a dissociation constant, usually derived from enzyme kinetics or from competition with a known ligand. Read a low Ki as tighter binding.
